Experimental findings from PMC3282187 (Neuron, 2012) are described below.

Structures are written as SMILES.

The experiment relates to neurons of the locus coeruleus (LC); mu opioid receptor-coupled K^+ channels. Type of experiment: cell-based, rat.

With `C=CCN1CC[C@]23c4c5ccc(O)c4O[C@H]2C(=O)CC[C@@]3(O)[C@H]1C5` [naloxone], the “effect on light-evoked outward current” value is “blocked”.
